# Like-named read-outs stand apart in the source and are kept apart here.
# Chains of the proteins cited; added tags and fusions are not shown.
# UniProt P51531, whole entry: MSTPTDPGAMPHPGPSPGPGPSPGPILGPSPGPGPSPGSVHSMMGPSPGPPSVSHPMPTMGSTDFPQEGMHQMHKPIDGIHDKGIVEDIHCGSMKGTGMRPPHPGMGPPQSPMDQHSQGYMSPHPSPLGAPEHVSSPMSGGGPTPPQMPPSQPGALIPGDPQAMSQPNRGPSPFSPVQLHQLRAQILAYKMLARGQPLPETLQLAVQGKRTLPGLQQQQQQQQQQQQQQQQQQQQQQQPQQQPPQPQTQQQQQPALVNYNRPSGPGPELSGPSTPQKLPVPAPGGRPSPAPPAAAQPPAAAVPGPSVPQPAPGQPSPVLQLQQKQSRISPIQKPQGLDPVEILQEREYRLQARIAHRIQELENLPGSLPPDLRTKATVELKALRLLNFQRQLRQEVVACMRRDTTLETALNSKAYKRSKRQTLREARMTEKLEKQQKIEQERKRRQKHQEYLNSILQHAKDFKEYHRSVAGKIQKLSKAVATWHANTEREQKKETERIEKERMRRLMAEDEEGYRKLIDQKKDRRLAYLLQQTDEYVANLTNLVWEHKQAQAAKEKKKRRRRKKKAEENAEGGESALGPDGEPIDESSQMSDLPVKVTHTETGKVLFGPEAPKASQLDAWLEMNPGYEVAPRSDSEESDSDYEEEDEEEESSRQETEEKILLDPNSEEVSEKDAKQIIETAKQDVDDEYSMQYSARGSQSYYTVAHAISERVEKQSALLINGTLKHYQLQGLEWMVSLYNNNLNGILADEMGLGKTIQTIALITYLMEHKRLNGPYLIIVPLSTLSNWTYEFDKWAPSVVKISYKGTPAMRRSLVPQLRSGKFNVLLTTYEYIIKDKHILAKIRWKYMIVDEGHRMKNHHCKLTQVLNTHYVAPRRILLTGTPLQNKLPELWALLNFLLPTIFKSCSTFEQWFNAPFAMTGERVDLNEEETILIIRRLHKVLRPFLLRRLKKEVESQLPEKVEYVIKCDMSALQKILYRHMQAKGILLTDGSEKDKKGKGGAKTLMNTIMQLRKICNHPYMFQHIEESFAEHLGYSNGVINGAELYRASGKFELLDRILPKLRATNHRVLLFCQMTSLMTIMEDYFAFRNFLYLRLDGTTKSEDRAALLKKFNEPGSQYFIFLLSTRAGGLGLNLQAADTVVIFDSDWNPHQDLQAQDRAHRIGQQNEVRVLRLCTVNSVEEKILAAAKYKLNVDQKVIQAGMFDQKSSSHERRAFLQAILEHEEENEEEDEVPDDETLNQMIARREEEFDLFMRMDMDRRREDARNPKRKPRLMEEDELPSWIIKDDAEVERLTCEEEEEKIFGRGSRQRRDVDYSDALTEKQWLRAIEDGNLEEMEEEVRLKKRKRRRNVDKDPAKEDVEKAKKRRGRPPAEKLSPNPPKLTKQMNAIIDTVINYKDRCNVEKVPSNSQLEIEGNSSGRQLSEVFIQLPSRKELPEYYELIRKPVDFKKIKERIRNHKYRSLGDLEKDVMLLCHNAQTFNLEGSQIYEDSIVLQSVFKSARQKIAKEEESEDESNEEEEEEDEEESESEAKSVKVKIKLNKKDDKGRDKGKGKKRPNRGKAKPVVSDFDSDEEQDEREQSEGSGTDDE
# Target: BRM (Homo sapiens, UniProt P51531)
# Assay: In-cell Western screen of BRM degradation in SW1573 cells (Dmax and DC50)
# Type: cell-based
"DC50 (BRM degradation, SW1573 cells)","Dmax (%) (% degraded) (BRM degradation, SW1573 cells, when tested at the top concentration of between 0.3 and 10 μM)",SMILES,"DC50 (read-out: BRM DC50, target protein degradation)"
> 0.03 µM,A (A > 75),Cc1ncsc1-c1ccc(CNC(=O)[C@@H]2C[C@@H](O)CN2C(=O)[C@@H](NC(=O)COCCOCCOCCOCCn2cc(-c3cc(-c4ccccc4O)nnc3N)cn2)C(C)(C)C)cc1,
,,Cc1ncsc1-c1ccc([C@H](C)NC(=O)[C@@H]2C[C@@H](O)CN2C(=O)[C@H](c2cc(OCC#CC34CC(CN5CC(Oc6cc(N7C8CCC7CN(c7cc(-c9ccccc9O)nnc7N)C8)ccn6)C5)(C3)C4)no2)C(C)C)cc1,> 0.03 µM
